## Yeast mating assay 1: variants of the scFv Ab-14

From the AlphaSeq antibody data of Engelhart et al. 2022 (doi:10.1038/s41597-022-01779-4), copy in the FLAb collection.

The target is the same throughout: PDVDLGDISGINAS, from the HR2 region of SARS-CoV-2 spike.

Parent: Ab-14, a human scFv built as VH, three GGGGS repeats, VL. Only the CDRs of the light chain vary.
VH: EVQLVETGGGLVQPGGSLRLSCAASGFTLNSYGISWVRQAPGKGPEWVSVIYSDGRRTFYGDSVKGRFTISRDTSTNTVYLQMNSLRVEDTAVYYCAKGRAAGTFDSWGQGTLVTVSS
VL: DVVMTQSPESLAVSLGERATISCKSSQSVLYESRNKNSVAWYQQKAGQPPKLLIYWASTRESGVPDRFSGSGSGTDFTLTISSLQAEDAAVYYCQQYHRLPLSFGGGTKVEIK

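The starting antibody came from a phage panning campaign against this peptide. Library AAYL50 holds single substitutions and randomly drawn double and triple substitutions in the CDRs. The assay is AlphaSeq: two haploid yeast populations carry antibody and antigen on their surface. Pairs that bind mate more often; barcode pairs of the diploids are counted by sequencing. Read counts were normalised to the haploid input and turned into Kd by a linear fit to BCL2-family pairs of known affinity, for each replicate. There are three technical replicates.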

Variants are written as CDR1, CDR2 and CDR3 of the light chain (limits as in the source). Parent: KSSQSVLYESRNKNSVA, WASTRES, QQYHRLPLS.
Values are log10 of the apparent Kd in nM; lower means stronger binding.
An entry "n.d." has no value in the source: the pair was not observed among the diploids in that replicate. This suggests poor binding but is not conclusive.
Parent in this assay: reference entry 0.65, copy in this library 1.68.
Nonspecific signal, from three strains lacking the peptide, appeared in 18% of pairings of library AAYL50, centred on 4.19 (5% of these signals below 2.99); values are not corrected for it. The control count says in how many pairings with the empty strains this scFv gave a signal, with their mean in brackets.

| CDR-L1 | CDR-L2 | CDR-L3 | log10 Kd (nM) by replicate | empty controls |
|---|---|---|---|---|
| LSSQSVHYESRNGNSVA | WASTRES | QQYHRLPLS | 1.90 1.88 2.11 | 8/9 (5.00) |
| KSSQSVLYESRNKNSMA | WASTRES | QQYHRLSLS | 6.10 4.08 n.d. | 3/9 (4.33) |
| KSSQSDLYESRNKNSVA | WPATRES | QQYHRLPLS | n.d. n.d. n.d. | 0/9 |
| KSSQSVLYESRNKNYVA | WASTRES | QFYHRIPLS | 2.56 3.29 2.74 | 1/9 (3.08) |
| KESQSVLYESRNKNSVA | WASTRES | NDYHRLPLS | n.d. n.d. n.d. | 0/9 |
| ESSQSVLYESRNKNSVA | WASTFES | QQVHRLPLS | 5.61 3.38 3.85 | 2/9 (4.10) |
| KVSQSVLYEDRNKNSVA | WASTRES | QQYHRLPLG | -0.31 0.02 -0.27 | 1/9 (1.61) |
| KSSQSVFYESRNKNSVA | WASTRWS | QQYHALPLS | 1.20 1.60 1.52 | 1/9 (2.98) |
| KSSQSVLYDSRNKNSVA | WFSTRES | QQYHRLPWS | n.d. 5.19 n.d. | 2/9 (4.50) |
| KSSQSVLYESRNKNSVA | WASTMES | QQMHRLPLS | n.d. n.d. n.d. | 0/9 |
| KSSQSYLPESRNKNSVA | WASTRES | QQYHRLPLL | 1.61 1.92 1.92 | 4/9 (4.41) |
| KSSQSVLYESRNINSVA | WASTRES | QQYHRLPLS | 0.38 0.68 0.63 | 5/9 (4.63) |
| KSSQDVLYESRNKNSVA | WASTRTS | QQYHRLPLS | 1.90 1.94 2.37 | 5/9 (4.59) |
| KSSQSVLYESRGKNSVA | WASTRMS | QQYHRLPLS | 0.76 1.15 0.93 | 2/9 (4.01) |
| KSSQSVLYESHNKNSVA | WASTRES | QQYHRPPLS | 1.77 1.46 1.95 | 3/9 (4.48) |
| KSMQSVLPESRNKNSFA | WASTRES | QQYHRLPLS | 3.06 3.69 2.86 | 3/9 (4.09) |
| KKSQSVLYESRNKNSVA | WASTRES | FQYPRLPLS | 5.01 4.29 n.d. | 4/9 (4.35) |
| KSSQSELYESRVKNSVA | WASTRES | QQYHRYPLS | 2.55 1.78 2.63 | 2/9 (3.96) |
| KSSQSVLYESRNKNSVA | WASTRES | RQYHRLPLY | n.d. n.d. n.d. | 2/9 (3.87) |
| KSSQSTLYESRNKNSVI | WASTRES | QQLHRLPLS | n.d. 3.52 n.d. | 1/9 (4.24) |
| WSSQSVWYESRNKNSVA | WASTRES | QQYHRLILS | 3.01 2.91 3.02 | 1/9 (3.36) |
| KSSQSWLYESRNKNSVA | WASTRES | QQYTRLPIS | 0.95 1.13 1.07 | 4/9 (4.27) |
| FSSQSVLYFSRNKNSVA | WASTRES | FQYHRLPLS | n.d. n.d. n.d. | 0/9 |
| KSSQSVLYESRNKNSVA | WASTRIS | QQYKRLPLS | 2.54 2.51 2.57 | 2/9 (3.98) |
| KSSQSVKYRSRNKNSVA | WASTRES | QQYVRLPLS | 3.18 n.d. n.d. | 5/9 (4.12) |
| KSSQSVLYESRNKNSVA | WASVRES | QQYHRLELS | 1.73 1.72 1.68 | 1/9 (5.31) |
| KASQSVLYEFRNKNSVA | WASKRES | QQYHRLPLS | 1.63 1.72 1.68 | 3/9 (4.63) |
| KSSQSVLYESRNKGSVA | WESTRES | QQYHWLPLS | 5.56 3.48 n.d. | 1/9 (3.71) |
| KSSQSVLYESQNKNSVA | WASTRES | QQYHRLPYS | 2.84 2.98 3.88 | 2/9 (5.08) |
| KSSQSVLYESRNKNSVA | WASRRES | QQYHRLDLI | 5.90 n.d. n.d. | 3/9 (4.58) |
| KSSQSVLYESNNKNSVA | WASTRES | QQYHRLFLC | n.d. n.d. n.d. | 0/9 |
| KSSQSHLYEGRNKNSVA | WASQRES | QQYHRLPLS | 0.64 0.80 0.86 | 1/9 (3.99) |
| KSSQFVLYESIRKNSVA | WASTRES | QQYHRLPLS | 1.45 1.52 1.41 | 6/9 (4.59) |
| KSSQSVGYESRNKNNVA | WASTRES | QQYHYLPLS | 0.81 0.91 0.81 | 1/9 (4.57) |
| KSSQSVLYESRNRNSVA | WASTRES | QQYHRHGLS | 0.67 0.88 0.77 | 4/9 (4.30) |
| KSSQSVLYESRNKNSVA | NASTFES | QQYGRLPLS | 0.75 0.85 0.75 | 1/9 (4.02) |
| KSSQSVLYESRNKNSSA | WASTRVS | QYYHRLPLS | n.d. n.d. n.d. | 1/9 (2.16) |
| KSSQSVLYMSRNKNSVA | WAITRES | TQYHRLPLS | 4.70 2.74 4.69 | 1/9 (3.29) |
| KSSQSVLAESRNKNSVD | WASTRKS | QQYHRLPLS | n.d. n.d. n.d. | 1/9 (4.01) |
| KSSQSVLYESRNKNSVA | WWSARES | KQYHRLPLS | n.d. n.d. n.d. | 2/9 (4.48) |
| KSSQSVLYDSPNKNSVA | WAETRES | QQYHRLPLS | 0.07 0.48 0.17 | 0/9 |
| KSSQSVLGESRNKNIVA | WASTRES | QQYHRPPLS | 4.41 3.99 4.66 | 3/9 (3.92) |
| KSSQSVLYESRNKTSQA | WASYRES | QQYHRLPLS | n.d. n.d. n.d. | 1/9 (4.36) |
| KSSQKVLYESGNKGSVA | WASTRES | QQYHRLPLS | 1.57 0.93 1.22 | 0/9 |
| KSSQSVLYESRNKNSVA | WASTRIS | QQYARLPLS | 1.64 1.50 1.67 | 0/9 |
| KSSQSVLYESRNKNSVA | WAITTES | QQVHRLPLS | n.d. n.d. 5.36 | 0/9 |
| KSSQSVLYESRNKNSVA | WISERES | QQYHRLPLG | n.d. n.d. n.d. | 1/9 (3.54) |
| KSSQIVLYETRNKNSVA | WASTRES | QQYHNLPLS | 3.37 2.85 3.31 | 2/9 (4.68) |

For reference, 7 entries of the list once more:

| CDR-L1 | CDR-L2 | CDR-L3 | log10 Kd (nM) by replicate | empty controls |
|---|---|---|---|---|
| KSSQSVLYESRNKNSVA | WISERES | QQYHRLPLG | n.d. n.d. n.d. | 1/9 (3.54) |
| KSSQSVLYESRNKNSVA | WWSARES | KQYHRLPLS | n.d. n.d. n.d. | 2/9 (4.48) |
| KSSQSVFYESRNKNSVA | WASTRWS | QQYHALPLS | 1.20 1.60 1.52 | 1/9 (2.98) |
| KSSQSVKYRSRNKNSVA | WASTRES | QQYVRLPLS | 3.18 n.d. n.d. | 5/9 (4.12) |
| KSSQSVLYESRNKNSVA | WASTRES | RQYHRLPLY | n.d. n.d. n.d. | 2/9 (3.87) |
| KSSQSVLYESNNKNSVA | WASTRES | QQYHRLFLC | n.d. n.d. n.d. | 0/9 |
| KSSQSYLPESRNKNSVA | WASTRES | QQYHRLPLL | 1.61 1.92 1.92 | 4/9 (4.41) |